For 1 compound, IC50 results are on record in patent publication US8791100B2 (Novartis AG, priority 2010, dated 2014).

Chains of the proteins cited; added tags and fusions are not shown.
UniProt P21453, whole entry: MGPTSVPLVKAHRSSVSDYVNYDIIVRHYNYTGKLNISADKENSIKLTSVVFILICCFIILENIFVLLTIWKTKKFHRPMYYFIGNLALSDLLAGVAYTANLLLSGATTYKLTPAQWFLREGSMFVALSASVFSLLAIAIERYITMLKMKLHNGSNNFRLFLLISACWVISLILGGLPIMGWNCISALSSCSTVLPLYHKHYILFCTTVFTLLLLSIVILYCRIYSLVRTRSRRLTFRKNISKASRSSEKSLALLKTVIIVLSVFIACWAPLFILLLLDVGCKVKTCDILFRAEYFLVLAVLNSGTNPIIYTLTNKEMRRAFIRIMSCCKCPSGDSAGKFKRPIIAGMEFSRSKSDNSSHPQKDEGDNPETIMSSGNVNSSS

For the assay, the target named is human S1P1 receptors (Homo sapiens (Human), UniProt P21453). Briefly: Human S1P1 Receptor Calcium FLIPR Antagonist Assay (HeLa Gα16 S1P1). As to conditions: relative antagonism vs probing agonist GNF-AC-1 at EC80, HeLa-S1P1/Gα16 cells.

SMILES strings stand for the structures.

By IC50 is commonly meant the concentration needed to halve the response being measured.

Consider `CCC(Nc1cccc(CN2CC(C(=O)O)C2)c1C)c1ccc(Cl)c(C)c1` (stereo not shown), for which the IC50 amounted to 1.2 nM.
